PubChem BioAssay AID1347428 (National Center for Advancing Translational Sciences (NCATS), 2020)
The entries are a selection whose mix differs from that of the whole data set. Inconclusive results are not listed. Activity calls are given as the source filed them. The call rests on the fitted dose curve; in most records, active means well fitted inhibition curve with a large enough effect; inconclusive means small, poorly fitted or top-dose-only effect; inactive means no such curve, though single readings can be large or run the other way.
Further: nearly all actives have a fitted effect of over 25% in size.
On the % scale 0 is the no-effect control and ±100 the full control effect.

Chains of the proteins cited; added tags and fusions are not shown.
UniProt Q9GZX7, whole entry: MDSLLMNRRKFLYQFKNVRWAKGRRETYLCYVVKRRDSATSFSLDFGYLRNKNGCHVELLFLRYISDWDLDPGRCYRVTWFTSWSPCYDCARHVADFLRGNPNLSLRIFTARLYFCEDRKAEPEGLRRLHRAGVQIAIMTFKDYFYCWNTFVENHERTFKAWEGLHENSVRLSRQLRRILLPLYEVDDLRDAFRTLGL

Each molecule was assayed against Single-stranded DNA cytosine deaminase (Homo sapiens) (UniProt Q9GZX7) (assay: Primary qHTS assay for inhibitors of Activation Induced Cytidine Deaminase (AID): AID signal). Details: AID deamination FRET fluorescence, UDG-coupled, 4 h; at 115 µM (top of the series).
From the text: Assay Provider (PI) Patricia Gearhart Ph.D.
National Institute on Aging
National Institute of Health (NIH), Bethesda, MD
Assay Provider (PI) Rahul Kohli Ph.D.
Perelman School of Medicine
University of Pennsylvania, Philadelphia, PA
Activation-Induced Deaminase (AID) is a cytosine deaminase which converts cytosine into uracil within stretches of ssDNA. The presence of uracil in DNA initiates a cascade of mutagenic DNA repair to introduce point mutations and DNA double strand breaks. Specific targeting of AID to the immunoglobulin heavy chain loci (Igh) promotes mutagenesis in the antibody variable region for somatic hypermutation (SHM) or switch regions leading to class switch recombination (CSR). […]
A FRET based analysis of cytosine deamination, was developed to identify potential inhibitors of AID catalytic activity. This screen has two signal output, Read 1 evaluates the AID inhibition response. The second readout (Read 2) evaluates UDG response and is uses as a counterscreen to exclude false positive inhibitors. […]
9a; Detection; fluorescence (Read 1: AID); EnVision (PerkinElmer) plate reader, 540 excitation and 590 emission filters
9b; Detection; fluorescence (Read 2: UDG); EnVision (PerkinElmer) plate reader, 560 excitation and 665 emission filters […]
9a; Fluorescence signal (column label AID) was read using the EnVision plate reader. […]
`N#[O+].[C-]#N.[C-]#N.[C-]#N.[C-]#N.[C-]#N.[Fe+2].[Na+].[Na+]` was tested, and the activity change, negative = inhibition was inactive: 23.6%.
